ALDH1A1 block: inhibitors of human aldehyde dehydrogenase 1A1; P00352; Purified ALDH1A1, NADH fluorescence, propionaldehyde substrate; Potency, µM (doses to about 75.3 µM), for the others: at the top dose activity, negative = inhibition, usual class: inhibitors; 7.3% of 220,000 active; AID 1030; active = well fitted inhibition curve with a large enough effect, not every such curve was filed as active; inconclusive = small, poorly fitted or top-dose-only effect, or another doubt; inactive = no such curve, though single readings can be large or run the other way;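 note: potency is the fitted concentration of half-maximal effect; plate controls were no enzyme wells and a reference inhibitor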
Sfp PPTase inh: qHTS Assay for Inhibitors of Bacillus subtilis Sfp phosphopantetheinyl transferase (PPTase); Biochemical Sfp PPTase activity, qHTS; Potency, µM, for inactives: max response, negative = inhibition, actives largely listed as inhibitors; actives 3.5% (n = 310,000); AID 1490, 2009; active = well fitted inhibition curve with a large enough effect; inconclusive = small, poorly fitted or top-dose-only effect, or another doubt; inactive = no such curve, though single readings can be large or run the other way;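 note: the enzyme is Sfp with the accession as filed and its product quenches rhodamine fluorescence; potency is the fitted concentration of half-maximal effect; 0% = enzyme reaction without inhibitor and -100% = no enzyme wells; top concentration of the series not given in the record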
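Reaction rates are the 30-min fluorescence difference (ex 525, em 598 nm) in wells containing 15 nM Sfp, 5 uM rhodamine-CoA and 12.5 uM BHQ-2-YbbR at pH 7.6 with 10 mM MgCl2.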
G9a block: blocks human histone lysine methyltransferase G9a; Potency, µM (series often up to 102 µM), without a hit: top-dose activity, negative = inhibition, most hits filed as inhibitors; G9a H3K9 monomethylation, AlphaScreen, 2 h; 8.8% of 350,000 active; Q96KQ7; AID 504332; note: potency is the fitted concentration of half-maximal effect; % is set by controls: 0 for no effect and ±100 for the full control effect; nearly all actives have a fitted effect of over 75% in size
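Using a bead-based AlphaScreen, monomethylated H3K9 product from 2 h room-temperature reactions (G9a 20 nM, peptide 500 nM, SAM 20 uM) was detected with 0.5 ug/mL rabbit anti-H3K9me1 antibody.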
miR-21 FLuc: raises the signal of a miR-21 reporter | HeLa miR-21 FLuc reporter, luciferase, 48 h | Potency, µM (doses to about 38.3 µM), without a hit: at the top dose reporter change, positive = more light | 340,000 tested, under 10 active | AID 2288; active = well fitted rising curve with a large enough effect; inconclusive = small, poorly fitted or top-dose-only effect; inactive = no such curve, though single readings can be large or run the other way;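 note: % of control where 0% means no effect; miR-21 action dims this reporter so a rising signal means less miR-21 action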
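HeLa cells endogenously expressing miR-21, stably carrying CMV-driven firefly luciferase with a downstream miR-21 binding site, 2000 cells/well. Titrations up to approximately 40 uM, 48 hours; luciferase luminescence read.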
JMJD2E inh: blocks human JMJD2E demethylase activity; B2RXH2; JMJD2E catalytic domain, FDH-coupled NADH fluorescence (FDH is formaldehyde dehydrogenase); Potency, µM (doses to about 57.1 µM), for the others: at the top dose activity change, negative = inhibition, usual class: inhibitors; 1.6% of 230,000 active; AID 2147; active = well fitted inhibition curve with a large enough effect, not every such curve was filed as active; inconclusive = small, poorly fitted or top-dose-only effect, or another doubt; inactive = no such curve, though single readings can be large or run the other way;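 note: potency is the fitted concentration of half-maximal effect; 0% = wells with enzyme and -100% = buffer wells without enzyme; nearly all actives have a fitted effect of over 50% in size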
Lamin A splicing: changes lamin A minigene splicing in HeLa cells | HeLa LMNA splicing GFP/RFP minigene ratio, 48 h | Potency, µM (titrated, usually from 46.1 µM), inactives show at the highest dose ratio change, negative = inhibition, most hits filed as inhibitors | 0.01% of 200,000 active; active = well fitted inhibition curve with a large enough effect in the signal ratio, with a control signal flat, not every such curve was filed as active; inconclusive = small, poorly fitted or top-dose-only effect, or effect the other way, or a change in a side signal; the % refers to the signal ratio; note: potency is the fitted concentration of half-maximal effect; % is set by controls: 0 for no effect and ±100 for the full control effect
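S3 HeLa cells stably expressing lamin A-EGFP splicing minigene plus DsRed2, 600 cells/well, 48 h compound exposure at 37C. Laser-scanning cytometry; analysed as GFP (500-530 nm)/RFP (575-640 nm) total intensity ratio; 0.5% DMSO vehicle.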
Starred values were filed as active, the others as inactive; ? = inconclusive; . = not tested or not shown; ! = a repeat was not active; [ ] = another dose, or the depositor's remark. In the library only some 13% were active in any assay of this set; here they are far more common. Unless noted, calls come from the whole dose curve; as a rule, active = well fitted curve in the direction sought with a large enough effect; inconclusive = small, poorly fitted or top-dose-only effect, or another doubt; inactive = no such curve, though single readings can be large; an effect the other way counts as inactive or inconclusive.

The opening three entries (preview)
1	CN(C)/C=N/C(=S)Nc1ccccc1Cl
2	CN(O)/C=N/C(=S)Nc1ccc(Cl)cc1Cl
3	CN(C)/C=N/C(=S)Nc1ccccc1F
Screen / compound no.,1,2,3
ALDH1A1 block,2.3%,1.58µM*,-9.3%
Sfp PPTase inh,50.1µM*,?,-24.6%
G9a block,?,3.55µM*,7.4%[12.7 µM]
miR-21 FLuc,-27.9%,-14.5%,-21.2%
JMJD2E inh,0.3%,7.0%,-1.6%
Lamin A splicing,.,16.3%[46 µM],?

The whole of this part, from the start:
1	CN(C)/C=N/C(=S)Nc1ccccc1Cl
2	CN(O)/C=N/C(=S)Nc1ccc(Cl)cc1Cl
3	CN(C)/C=N/C(=S)Nc1ccccc1F
4	CC1CCCN(c2cc3c(cc2F)c(=O)c(S(=O)(=O)c2cccc(Cl)c2)cn3C)C1 (stereo not given)
5	Cc1sc(NC(=O)c2ccco2)c(C(Nc2ccccn2)c2ccccc2)c1C (stereo not given)
6	COc1ccc(C(Nc2ccccn2)c2c(NC(=O)c3ccco3)sc(C)c2C)cc1 (stereo not given)
Screen / compound no.,1,2,3,4,5,6
ALDH1A1 block,2.3%,1.58µM*,-9.3%,.,6.8%,-9.3%
Sfp PPTase inh,50.1µM*,?,-24.6%,.,0.3%,14.3%
G9a block,?,3.55µM*,7.4%[12.7 µM],3.5%[59 µM],44.7µM*,44.7µM*
miR-21 FLuc,-27.9%,-14.5%,-21.2%,-3.6%,-24.1%,-45.6%
JMJD2E inh,0.3%,7.0%,-1.6%,.,?,?
Lamin A splicing,.,16.3%[46 µM],?,5.8%[46 µM],-4.8%,?

7	CC(=O)c1cccc(NS(=O)(=O)c2cccc(S(=O)(=O)c3ccc(Br)cc3)c2)c1
8	O=C(NC(=S)N1CCCc2ccccc21)c1ccc([N+](=O)[O-])cc1
9	O=C(NC(=S)N1CCCc2ccccc21)c1ccc(Br)cc1
10	O=C(c1ccc([N+](=O)[O-])s1)N1CCc2ccccc21
11	O=C(NC(=S)N1CCCc2ccccc21)c1ccccc1
12	O=C(NC(=S)N1CCCc2ccccc21)c1ccc(Cl)cc1
Screen / compound no.,7,8,9,10,11,12
ALDH1A1 block,.,11.2µM*,?,.,?,-173.7%
Sfp PPTase inh,.,15.8µM*,44.7µM*,2.1%,-1.4%,22.4µM*
G9a block,-3.8%[59 µM],10µM*,44.7µM*,23.4%,29.4%[0.501 µM],?
miR-21 FLuc,19.8%,-15.9%,-23.8%,-8.9%,-37.5%,-25.7%
JMJD2E inh,.,-14.7%,-0.7%,.,-4.6%,8.6%
Lamin A splicing,.,?,-10.9%,.,16.0%[0.0737 µM],?

13	O=C(C(=O)N1CCCc2ccccc21)N1CCCc2ccccc21
14	O=C(c1ccc([N+](=O)[O-])s1)N1CCCc2ccccc21
15	O=C(c1cc([N+](=O)[O-])cc([N+](=O)[O-])c1)N1CCCc2ccccc21
16	CCOC(=O)C1=C(Cc2ccc(F)cc2)C(=O)c2ccccc2C1=O
17	CC1CCCCC12NC(=O)N(CC(=O)NCCc1c[nH]c3ccccc13)C2=O (stereo not given)
18	N#Cc1c(/N=C/c2ccco2)sc2c1CCC2
Screen / compound no.,13,14,15,16,17,18
ALDH1A1 block,0.5%,.,0.3%,?,.,-4.6%
Sfp PPTase inh,-1.5%,-8.1%,16.9%,8.91µM*,.,-12.1%
G9a block,12.5%[59 µM],39.8µM*,?,8.91µM*,-3.3%[12.7 µM],?
miR-21 FLuc,-3.7%,16.9%,0.8%,?,.,-3.5%
JMJD2E inh,8.3%,.,-0.4%,?,.,-4.8%
Lamin A splicing,-7.5%,.,-8.5%[46 µM],?,.,-15.5%

19	CCOc1[nH]c(/N=C/c2ccco2)c(C#N)c1C#N
20	OCCNCC(O)CN1c2ccccc2Sc2ccccc21 (stereo not given)
21	CCN(CC)C(C)CN1c2ccccc2Sc2ccccc21 (stereo not given)
22	NC(=O)c1ccc[n+]([C@H]2O[C@@H](COP(=O)([O-])OP(=O)(O)OC[C@H]3O[C@@H](n4cnc5c(N)ncnc54)[C@H](O)[C@@H]3O)[C@H](O)[C@@H]2O)c1
23	CC(=O)c1cccc(NC(=O)C2C3C=CC(C4CC34)C2C(=O)O)c1 (stereo not given)
24	CC(=O)c1cccc(NC(=O)C2C3C=CC(C3)C2C(=O)O)c1 (stereo not given)
Screen / compound no.,19,20,21,22,23,24
ALDH1A1 block,20µM*,.,?,.,-11.4%,-7.3%
Sfp PPTase inh,44.7µM*,8.0%,-17.3%,.,14.1µM*,-25.8%
G9a block,7.08µM*,12.6%[59 µM],5.01µM*!,-24.8%[12.7 µM],-6.0%[59 µM],.
miR-21 FLuc,3.0%,4.1%,.,.,-8.5%,-1.7%
JMJD2E inh,-15.9%,.,?,.,-3.1%,-15.1%
Lamin A splicing,-1.9%,.,.,.,-2.5%,-6.7%[46 µM]

25	O=C(CCNc1ccc(F)cc1)c1cc2ccccc2o1
26	O=C(CCNc1cccc(F)c1)c1cc2ccccc2o1
27	O=C(Cc1ccc(F)cc1)OCC(=O)c1cc2ccccc2o1
28	COc1ccc(-c2nc(C)c(CCNC(=O)C(=O)Nc3cc(C)cc(C)c3)s2)cc1OC
29	CN(C)c1ncc2nc(-c3ccc(F)cc3)c(=O)n(C3CC3)c2n1
30	C[C@H]1CN=C(Nc2ccccc2)N1CC1CCCCCC1
Screen / compound no.,25,26,27,28,29,30
ALDH1A1 block,0.1µM*,0.0251µM*,?,.,?,.
Sfp PPTase inh,-5.8%,-0.6%,-12.0%,.,6.1%,4.3%
G9a block,-44.2%,10µM*,?,9.0%[59 µM],-12.2%[12.7 µM],17.7%
miR-21 FLuc,1.3%,-6.1%,-1.6%,-2.3%,.,-0.1%
JMJD2E inh,-14.3%,?,-24.6%,.,.,.
Lamin A splicing,-23.6%[9.22 µM],.,-6.3%,?,.,.

31	COc1ccc(C(=O)Nc2ccnn2C2CCN(Cc3ccccn3)CC2)cc1
32	O=C(CCCc1ccccc1)Nc1ccnn1C1CCN(Cc2ccccn2)CC1
33	Cc1ccccc1CN1CCC(n2nccc2NC(=O)CCCc2ccccc2)CC1
34	COc1ccc(NC(=O)CN(c2cc(C)cc(C)c2)S(=O)(=O)c2c(C)noc2C)cc1Cl
35	COC(=O)N1CCC2(CCN(C(=O)Nc3ccc(OC)cc3)CC2)CC1
36	CC1(C)O[C@@H]2C[C@H]3[C@H]4C[C@H](F)C5=CC(=O)CC[C@]5(C)[C@@H]4[C@H](O)C[C@]3(C)[C@]2(C(=O)CO)O1
Screen / compound no.,31,32,33,34,35,36
ALDH1A1 block,.,.,.,.,-7.3%,13.3%[20.9 µM]
Sfp PPTase inh,-2.3%,1.3%,-1.1%,.,21.5%,10.1%
G9a block,50.1µM*,79.4µM*,-0.3%[0.0925 µM],9.9%[59 µM],1.9%[12.7 µM],?
miR-21 FLuc,-5.2%,-1.7%,2.3%,-1.2%,.,.
JMJD2E inh,.,.,.,.,.,-4.0%[25.5 µM]
Lamin A splicing,.,.,.,.,.,2.5%

37	Cc1noc(C)c1-c1cncnc1NCc1cccnc1
38	Cc1ccccc1-c1cncnc1NCc1cccnc1
39	CCOC(=O)c1c(NC(C)=O)c2c3c(sc2n1Cc1ccc(Cl)cc1)CCCC3
40	Cc1ccc(CC(=O)Nc2ccc(F)c([N+](=O)[O-])c2)cc1C
41	COc1cc(Br)cc(CNc2ccc(F)c([N+](=O)[O-])c2)c1O
42	CC1(C)SC(=S)N(NC(=O)Nc2ccccc2)C1N(O)C(=O)Nc1cccc2ccccc12 (stereo not given)
Screen / compound no.,37,38,39,40,41,42
ALDH1A1 block,25.1µM*,16.9%,.,?,?,10.8%
Sfp PPTase inh,56.2µM*,79.4µM*,.,16.2%,25.1µM*,2.4%
G9a block,-49.3%[0.501 µM],-6.1%[0.501 µM],5.3%[59 µM],-2.1%,44.7µM*,11.2µM*
miR-21 FLuc,.,.,1.2%,9.8%,1.1%,19.9%
JMJD2E inh,.,.,.,-15.5%,1.3%,3.9%
Lamin A splicing,1.6%,1.1%,.,?,.,?

43	CC1(C)SC(=S)N(/N=C/c2ccccc2O)C1N(O)C(=O)Nc1ccccc1 (stereo not given)
44	CN(C)c1ccc(C=NCCC2(c3ccccc3)CCOC(C)(C)C2)cc1 (stereo not given)
45	CN(C)c1ccc(C=NCC2(O)CCOC(C)(C)C2)cc1 (stereo not given)
46	O=C(NN1C(=O)/C(=C/C=C/c2ccco2)SC1=S)c1ccccc1O
47	Cn1cccc1/C=C1\SC(=S)N(NC(=O)c2cccc(Cl)c2)C1=O
Screen / compound no.,43,44,45,46,47
ALDH1A1 block,.,.,0.447µM*,.,2µM*
Sfp PPTase inh,20.4%,11.5%,-1.6%,56.2µM*,-24.1%
G9a block,-42.3%,0.3%,43.8%[12.7 µM],.,22.4µM*
miR-21 FLuc,-17.5%,-0.9%,0.1%,1.4%,-0.1%
JMJD2E inh,-7.6%,-7.5%,-24.0%,12.6µM*,-6.9%
Lamin A splicing,.,.,-5.9%,.,?
